Results on eight compounds are retold here after patent US8058243B2, “Method for treating a brain cancer with ifenprodil” (HSC Research and Development Limited Partnership, priority 2006, dated 2011).

Structures can show the parent of a compound that is named as a salt. Where two headings read alike, the source gives them in different places.

This test relates to murine neural precursor cells (neurosphere cultures). The test can be described thus: HTS of LOPAC library against secondary neurosphere cultures, MTT proliferation assay at 3 μM, day 7 (z score, P value). On the technique in general: Tetrazolium dyes change colour on reduction, which living cells bring about.

`O=C(O)C1CCCNC1` (racemic) [(±)-Nipecotic acid]: the Activity result is “no”.

On to `O=C(O)c1cc2cc(F)ccc2[nH]1` [5-Fluoroindole-2-carboxylic acid], for which the Activity result is recorded as “no”.

As to `CC(=O)[C@H]1CC[C@H]2[C@@H]3CC[C@H]4C[C@H](O)CC[C@]4(C)[C@H]3C(=O)C[C@]12C` [5alpha-Pregnan-3alpha-ol-11,20-dione], the Activity entry is “no”.

On to `N=C(N)SCCc1cnc[nH]1` [Imetit dihydrobromide], for which the Activity result was “no”.

In the case of `CNCCC(Oc1ccccc1OC)c1ccccc1` (stereo not drawn) [Nisoxetine hydrochloride], the Activity result is given as “no”.

As to `Nc1nc2ccc(OC(F)(F)F)cc2s1` [Riluzole], the Activity entry is given as “no”.

As to (−)-Quinpirole hydrochloride, the Activity entry is on record as “no”.

Regarding (−)-Scopolamine methyl nitrate, the “Z score” value is given as −0.4508. The Z score (LOPAC primary screen, neurosphere MTT proliferation, 3 μM, day 7) is given as −0.451.
